Data taken from US9365521B2, “Non-hygroscopic salts of 5-HT2C agonists” (Arena Pharmaceuticals, Inc., priority 2010, dated 2016).

Test: Solubility in water by UPLC
Assay type: physicochemical

## (R)-8-chloro-1-methyl-2,3,4,5-tetrahydro-1H-3-benzazepine citrate salt hemihydrate
  solubility in water: 33.9 mg/mL
